# Measurements taken from patent US9539349B2, “Formulation, apparatus and method for stabilizing radiopharmaceuticals” (Siemens Medical Solutions USA, Inc., priority 2010, dated 2017).
# Experiment: Excipient screen: protective factor (PF) for [F-18]FLT in argon sparged vials
# Details: at 50 mg/mL, as compared to oxygen
smiles,measurement,value
O=C1O[C@H]([C@@H](O)CO)C(O)=C1O [Ascorbic acid],stabilization of [F-18]FLT against radiolysis,not as effective
